From US20100203126A1, “MULTILAYERED VITAMIN COMPLEX TABLET CONTAINING UBIDECARENONE” (priority 2007, published 2010)

Columns and labels:
[1] = Stability test for ubidecarenone and vitamins/minerals under co-existence, mixed 1:1; format: physicochemical; settings: 40±2° C., 75±5 RH %
[2] = Stability test for ubidecarenone and vitamins/minerals under co-existence at typical formulation ratio; format: physicochemical; settings: ubidecarenone 50 mg, accelerated stability test
Experimental: Ubidecarenone and vitamins/minerals were under co-existence at a typical formulation amount and ratio, and then the accelerated stability test for ubidecarenone was performed. In the following table, ubidecarenone is contained at the same amount of 50 mg in each formulation. The amount of ubidecarenone was omitted in the column of preparation formulation.
The content of ingredients such as vitamins and the content of ubidecarenone (50 mg equally) under the co-existence were represented in the column of preparation formulation of Table 27.

COC1=C(OC)C(=O)C(C/C=C(\C)CC/C=C(\C)CC/C=C(\C)CC/C=C(\C)CC/C=C(\C)CC/C=C(\C)CC/C=C(\C)CC/C=C(\C)CC/C=C(\C)CCC=C(C)C)=C(C)C1=O [Ubidecarenone]
% residual amount of ubidecarenone ([1]; 4 weeks): 97.2% | % residual amount of ubidecarenone ([1]; 6 weeks): 96.4% | residual amount of ubidecarenone, 4 weeks (%) ([2]; 4 weeks): 97.2% | residual amount of ubidecarenone, 6 weeks (%) ([2]; 6 weeks): 96.4%
